{"source": "paper PMC6832524", "about": "“A Nature-Inspired Design Yields a New Class of Steroids Against Trypanosomatids” (Molecules, 2019)", "system": "bone marrow polychromatic erythrocytes", "conditions": "50 mg/kg intraperitoneal, positive control; sum in five trials, 5000 PEC observed"}
{"smiles": "O=P1(N(CCCl)CCCl)NCCCO1", "note": "(stereo not shown) [Cyclophosphamide, reference compound]", "values": [{"measurement": "Number of MnPE", "value": 180}]}
